Measurements from patent publication US20230270848A1.

Molecular target: mIgE.FcL on Ramos cells: segment of the long isoform of the mIgE ε chain spanning from the CH2 to the cytoplasmic peptide, including the EMPD (human) (UniProt P01854)
Assay: cell-based or functional assay

EC50 of apoptosis (% Annexin V+/PI-) of mIgE.FcL-expressing Ramos cells: 0.121 µg/mL
Substance: Xolair, a humanized anti-IgE monoclonal antibody
